Test results as given in ChEMBL document CHEMBL5241080, “Quinoline anticancer agents active on DNA and DNA-interacting proteins: From classical to emerging therapeutic targets” (Eur J Med Chem, 2021).

Biological target: T1, DNA topoisomerase 1 (Homo sapiens, UniProt P11387)
T1 sequence (P11387 whole entry): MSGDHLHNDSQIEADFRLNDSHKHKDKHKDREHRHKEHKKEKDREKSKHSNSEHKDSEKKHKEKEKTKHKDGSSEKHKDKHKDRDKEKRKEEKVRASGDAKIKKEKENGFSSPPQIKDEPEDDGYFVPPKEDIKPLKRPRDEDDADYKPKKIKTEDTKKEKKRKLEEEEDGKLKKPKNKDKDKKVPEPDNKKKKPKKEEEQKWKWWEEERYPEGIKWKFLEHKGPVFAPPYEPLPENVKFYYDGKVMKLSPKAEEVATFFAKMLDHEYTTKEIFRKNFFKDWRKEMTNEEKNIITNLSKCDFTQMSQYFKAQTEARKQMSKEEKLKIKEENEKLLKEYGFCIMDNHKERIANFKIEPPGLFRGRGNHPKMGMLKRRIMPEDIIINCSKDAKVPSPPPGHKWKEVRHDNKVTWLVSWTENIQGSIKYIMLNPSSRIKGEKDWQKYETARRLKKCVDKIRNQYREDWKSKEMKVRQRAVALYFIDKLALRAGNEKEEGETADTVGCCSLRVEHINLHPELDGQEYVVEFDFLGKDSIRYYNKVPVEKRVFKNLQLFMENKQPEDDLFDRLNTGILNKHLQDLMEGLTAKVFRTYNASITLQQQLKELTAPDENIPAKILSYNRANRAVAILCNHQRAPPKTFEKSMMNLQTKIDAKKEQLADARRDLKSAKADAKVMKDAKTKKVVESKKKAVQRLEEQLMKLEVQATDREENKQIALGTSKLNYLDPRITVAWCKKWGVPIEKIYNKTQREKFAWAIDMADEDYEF
Assay: Inhibition of human topoisomerase 1

IC50: 3.2 µM
Structure (SMILES): COc1cccc2c1C(=O)c1c(O)c3c(c(O)c1C2=O)C[C@@](O)(C(=O)CO)C[C@@H]3O[C@H]1C[C@H](N)[C@H](O)[C@H](C)O1 [DOXORUBICIN]
